Experimental data as given in US20190256564A1, “NEMERTEA-DERIVED BIOACTIVE COMPOUNDS” (priority 2016, published 2019).

Amino acid sequences for entries named in this document (tags omitted).
UniProt Q9WTU3, whole entry: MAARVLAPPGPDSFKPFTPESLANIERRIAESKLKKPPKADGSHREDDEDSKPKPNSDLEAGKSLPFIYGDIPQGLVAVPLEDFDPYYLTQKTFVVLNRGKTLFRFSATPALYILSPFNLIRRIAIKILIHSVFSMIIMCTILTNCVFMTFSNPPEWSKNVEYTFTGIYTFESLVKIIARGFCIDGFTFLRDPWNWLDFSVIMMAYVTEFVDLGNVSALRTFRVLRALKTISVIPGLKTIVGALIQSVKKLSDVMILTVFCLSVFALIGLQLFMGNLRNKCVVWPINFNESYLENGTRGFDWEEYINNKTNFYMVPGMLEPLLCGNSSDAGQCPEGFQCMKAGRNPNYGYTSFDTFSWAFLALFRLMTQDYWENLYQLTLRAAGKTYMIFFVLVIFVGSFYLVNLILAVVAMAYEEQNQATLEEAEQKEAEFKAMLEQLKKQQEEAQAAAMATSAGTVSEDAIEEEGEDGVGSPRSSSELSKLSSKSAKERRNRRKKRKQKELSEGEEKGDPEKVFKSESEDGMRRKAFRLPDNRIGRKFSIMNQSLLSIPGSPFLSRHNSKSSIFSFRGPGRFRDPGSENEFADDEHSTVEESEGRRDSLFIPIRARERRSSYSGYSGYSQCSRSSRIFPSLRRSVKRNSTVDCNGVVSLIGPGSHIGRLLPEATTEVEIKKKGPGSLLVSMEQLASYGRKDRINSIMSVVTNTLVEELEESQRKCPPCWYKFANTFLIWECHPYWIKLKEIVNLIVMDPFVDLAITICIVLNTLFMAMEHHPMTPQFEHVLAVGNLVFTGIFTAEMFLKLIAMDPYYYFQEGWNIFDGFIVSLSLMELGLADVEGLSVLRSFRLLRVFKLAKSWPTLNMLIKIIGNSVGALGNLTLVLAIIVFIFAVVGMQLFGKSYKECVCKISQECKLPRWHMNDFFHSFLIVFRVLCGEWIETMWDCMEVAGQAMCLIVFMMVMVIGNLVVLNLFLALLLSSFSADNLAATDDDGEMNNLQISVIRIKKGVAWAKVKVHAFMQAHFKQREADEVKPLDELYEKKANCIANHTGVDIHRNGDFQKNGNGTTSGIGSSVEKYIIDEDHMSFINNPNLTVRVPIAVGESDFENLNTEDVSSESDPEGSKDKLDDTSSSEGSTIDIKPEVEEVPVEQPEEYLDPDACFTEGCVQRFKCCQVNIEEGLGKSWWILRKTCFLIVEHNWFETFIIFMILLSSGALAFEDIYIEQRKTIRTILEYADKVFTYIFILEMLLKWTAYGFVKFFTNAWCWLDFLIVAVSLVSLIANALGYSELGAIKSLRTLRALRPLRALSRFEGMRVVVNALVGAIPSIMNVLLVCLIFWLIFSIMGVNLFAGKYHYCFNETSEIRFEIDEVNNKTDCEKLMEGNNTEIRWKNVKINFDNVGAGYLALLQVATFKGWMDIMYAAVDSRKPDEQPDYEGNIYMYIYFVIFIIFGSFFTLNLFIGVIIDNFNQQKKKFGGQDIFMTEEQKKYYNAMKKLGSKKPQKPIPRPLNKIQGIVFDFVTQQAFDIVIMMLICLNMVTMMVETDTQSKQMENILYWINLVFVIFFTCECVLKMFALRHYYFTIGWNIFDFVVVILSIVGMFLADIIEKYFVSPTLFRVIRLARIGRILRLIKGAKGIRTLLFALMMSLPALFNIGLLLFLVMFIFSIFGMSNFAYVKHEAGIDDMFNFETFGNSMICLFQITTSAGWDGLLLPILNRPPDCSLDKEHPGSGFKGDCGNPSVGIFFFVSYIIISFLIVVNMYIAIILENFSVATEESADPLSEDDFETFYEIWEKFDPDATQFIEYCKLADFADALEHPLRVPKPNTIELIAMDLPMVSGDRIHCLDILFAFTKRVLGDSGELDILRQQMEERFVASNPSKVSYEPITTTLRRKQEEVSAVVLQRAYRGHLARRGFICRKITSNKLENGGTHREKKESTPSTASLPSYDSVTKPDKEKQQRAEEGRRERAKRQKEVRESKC
UniProt Q9Y5Y9, whole entry: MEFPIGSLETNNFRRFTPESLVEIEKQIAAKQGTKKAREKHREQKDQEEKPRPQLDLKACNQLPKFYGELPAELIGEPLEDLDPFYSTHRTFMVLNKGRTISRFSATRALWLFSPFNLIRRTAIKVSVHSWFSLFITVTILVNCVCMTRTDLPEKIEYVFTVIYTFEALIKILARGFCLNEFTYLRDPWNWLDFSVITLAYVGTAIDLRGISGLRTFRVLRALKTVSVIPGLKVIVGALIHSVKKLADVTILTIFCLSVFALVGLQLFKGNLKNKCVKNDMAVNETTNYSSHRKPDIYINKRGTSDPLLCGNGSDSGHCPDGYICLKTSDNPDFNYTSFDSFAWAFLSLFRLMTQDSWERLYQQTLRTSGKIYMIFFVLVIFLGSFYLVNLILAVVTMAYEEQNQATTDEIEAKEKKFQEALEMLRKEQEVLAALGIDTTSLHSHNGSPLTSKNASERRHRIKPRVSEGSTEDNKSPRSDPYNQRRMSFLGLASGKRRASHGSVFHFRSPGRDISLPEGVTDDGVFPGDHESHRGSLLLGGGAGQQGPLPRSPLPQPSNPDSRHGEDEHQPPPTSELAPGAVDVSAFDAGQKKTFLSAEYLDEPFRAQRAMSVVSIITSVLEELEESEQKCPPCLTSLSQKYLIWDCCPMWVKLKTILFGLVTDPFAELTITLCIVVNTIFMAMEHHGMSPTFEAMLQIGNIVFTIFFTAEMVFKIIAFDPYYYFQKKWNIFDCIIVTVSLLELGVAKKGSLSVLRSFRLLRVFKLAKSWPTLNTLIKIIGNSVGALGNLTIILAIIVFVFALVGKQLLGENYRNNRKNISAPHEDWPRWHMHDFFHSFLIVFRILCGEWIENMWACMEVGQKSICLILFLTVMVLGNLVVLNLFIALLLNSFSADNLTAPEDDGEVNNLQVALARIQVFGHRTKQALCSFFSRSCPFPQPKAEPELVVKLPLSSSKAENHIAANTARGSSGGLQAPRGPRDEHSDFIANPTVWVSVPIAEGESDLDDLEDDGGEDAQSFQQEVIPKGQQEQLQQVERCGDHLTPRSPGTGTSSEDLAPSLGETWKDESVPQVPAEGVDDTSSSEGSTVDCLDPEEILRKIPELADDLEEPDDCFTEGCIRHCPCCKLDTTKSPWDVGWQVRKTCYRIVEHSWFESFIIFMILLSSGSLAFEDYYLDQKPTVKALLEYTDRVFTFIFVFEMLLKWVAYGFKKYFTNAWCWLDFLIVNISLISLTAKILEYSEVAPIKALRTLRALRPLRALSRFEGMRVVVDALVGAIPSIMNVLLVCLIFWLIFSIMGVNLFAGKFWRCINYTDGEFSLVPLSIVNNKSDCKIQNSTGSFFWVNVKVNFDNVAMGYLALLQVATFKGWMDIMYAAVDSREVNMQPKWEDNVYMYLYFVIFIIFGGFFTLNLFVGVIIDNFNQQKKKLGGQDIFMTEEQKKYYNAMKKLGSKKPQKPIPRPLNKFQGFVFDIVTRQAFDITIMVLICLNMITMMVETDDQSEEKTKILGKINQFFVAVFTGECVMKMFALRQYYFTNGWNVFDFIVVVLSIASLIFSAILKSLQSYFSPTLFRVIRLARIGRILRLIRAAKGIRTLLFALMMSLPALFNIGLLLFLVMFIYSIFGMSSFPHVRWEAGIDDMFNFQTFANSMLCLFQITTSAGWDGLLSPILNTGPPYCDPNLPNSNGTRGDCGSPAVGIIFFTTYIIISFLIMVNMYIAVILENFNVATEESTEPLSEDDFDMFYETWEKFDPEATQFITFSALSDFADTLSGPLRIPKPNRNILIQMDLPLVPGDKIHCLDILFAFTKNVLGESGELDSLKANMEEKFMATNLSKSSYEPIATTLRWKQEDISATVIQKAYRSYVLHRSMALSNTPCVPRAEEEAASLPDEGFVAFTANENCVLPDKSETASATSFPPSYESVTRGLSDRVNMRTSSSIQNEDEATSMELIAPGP
UniProt Q14524, whole entry: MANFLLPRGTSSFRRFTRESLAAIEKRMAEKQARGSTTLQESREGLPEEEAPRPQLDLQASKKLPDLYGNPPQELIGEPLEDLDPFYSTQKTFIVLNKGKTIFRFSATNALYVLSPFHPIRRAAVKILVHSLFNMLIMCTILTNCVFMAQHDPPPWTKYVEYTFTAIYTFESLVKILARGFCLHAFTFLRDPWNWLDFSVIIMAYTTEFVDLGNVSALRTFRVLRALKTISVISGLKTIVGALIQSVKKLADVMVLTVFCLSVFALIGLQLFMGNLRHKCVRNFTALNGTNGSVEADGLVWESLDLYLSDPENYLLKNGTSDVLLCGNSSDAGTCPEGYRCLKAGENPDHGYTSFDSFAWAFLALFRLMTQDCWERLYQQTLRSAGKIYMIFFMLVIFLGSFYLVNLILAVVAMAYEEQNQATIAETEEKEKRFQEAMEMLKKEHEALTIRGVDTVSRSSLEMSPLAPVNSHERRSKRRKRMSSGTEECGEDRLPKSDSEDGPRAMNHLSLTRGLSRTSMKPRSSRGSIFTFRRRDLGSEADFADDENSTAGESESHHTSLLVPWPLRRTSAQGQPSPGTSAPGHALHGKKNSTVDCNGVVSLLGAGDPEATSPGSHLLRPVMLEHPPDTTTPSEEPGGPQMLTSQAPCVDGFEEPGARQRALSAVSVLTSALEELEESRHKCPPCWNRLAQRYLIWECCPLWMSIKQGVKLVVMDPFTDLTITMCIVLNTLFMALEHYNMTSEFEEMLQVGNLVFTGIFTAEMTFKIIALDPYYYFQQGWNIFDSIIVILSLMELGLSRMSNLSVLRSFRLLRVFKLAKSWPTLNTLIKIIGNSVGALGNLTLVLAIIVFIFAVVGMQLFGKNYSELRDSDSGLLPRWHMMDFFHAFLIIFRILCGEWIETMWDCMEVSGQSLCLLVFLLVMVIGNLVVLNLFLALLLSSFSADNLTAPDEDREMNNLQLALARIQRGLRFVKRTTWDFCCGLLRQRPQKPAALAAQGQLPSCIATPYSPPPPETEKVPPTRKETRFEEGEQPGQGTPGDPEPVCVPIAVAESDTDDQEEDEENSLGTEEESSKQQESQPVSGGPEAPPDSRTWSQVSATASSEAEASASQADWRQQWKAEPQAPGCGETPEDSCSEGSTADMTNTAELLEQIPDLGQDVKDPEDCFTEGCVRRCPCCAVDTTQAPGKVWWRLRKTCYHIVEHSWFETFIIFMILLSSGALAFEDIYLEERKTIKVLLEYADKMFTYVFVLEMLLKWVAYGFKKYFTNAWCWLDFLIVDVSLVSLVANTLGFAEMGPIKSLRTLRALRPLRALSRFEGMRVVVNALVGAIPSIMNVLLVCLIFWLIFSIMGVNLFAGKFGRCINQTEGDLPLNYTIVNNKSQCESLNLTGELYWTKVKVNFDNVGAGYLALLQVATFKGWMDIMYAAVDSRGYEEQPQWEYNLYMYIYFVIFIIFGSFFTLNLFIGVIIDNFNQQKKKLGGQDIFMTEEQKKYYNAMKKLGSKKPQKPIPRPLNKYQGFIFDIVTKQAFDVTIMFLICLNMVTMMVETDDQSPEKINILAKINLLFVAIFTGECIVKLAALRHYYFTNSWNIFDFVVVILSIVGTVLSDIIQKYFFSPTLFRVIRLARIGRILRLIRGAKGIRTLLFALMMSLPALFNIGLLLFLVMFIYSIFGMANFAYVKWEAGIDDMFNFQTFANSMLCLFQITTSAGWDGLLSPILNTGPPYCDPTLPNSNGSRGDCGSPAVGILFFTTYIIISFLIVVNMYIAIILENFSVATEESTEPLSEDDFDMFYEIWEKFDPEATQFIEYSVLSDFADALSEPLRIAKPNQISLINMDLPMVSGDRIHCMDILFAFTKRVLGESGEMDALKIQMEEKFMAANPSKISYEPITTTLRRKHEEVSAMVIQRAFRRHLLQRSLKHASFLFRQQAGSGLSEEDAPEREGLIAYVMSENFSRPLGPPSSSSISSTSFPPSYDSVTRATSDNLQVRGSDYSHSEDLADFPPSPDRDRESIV

How the values were obtained:
Nav1.6 = Nav1.6 (Mus musculus, UniProt Q9WTU3); test: Two-electrode voltage clamp, Nav1.6 expressed in Xenopus oocytes; assay type: cell-based; settings: 6 μM
Nav1.8 = biological target: T1, Nav1.8 (Homo sapiens, UniProt Q9Y5Y9); test: Two-electrode voltage clamp, Nav1.8 expressed in Xenopus oocytes; assay type: cell-based; settings: 6 μM
T1 construct: expressed in transfected cells; host or cells: Xenopus laevis oocytes
Excerpt: Nemertide α-1 was investigated for its activity on five vertebrate and three invertebrate voltage-gated sodium channel isoforms (Navs). […] No effect was seen on Nav1.8. Steady-state activation and inactivation curves were constructed to characterize the modulation of Nav channels upon toxin binding. […]. Both the activation and inactivation curves of Nav1.5 channels were altered. […]. To assess the concentration dependence of the α-1-induced modulatory effects on Nav1.6 channels, a concentration-response curve was constructed (FIG. 5B). […]
Electrophysiology. Whole-cell currents from oocytes were recorded at room temperature (18-22° C.) by the two-electrode voltage clamp technique using a GeneClamp 500 amplifier (Molecular Devices, Sunnyvale, Calif.) controlled by a pClamp data acquisition system (Molecular Devices). Oocytes were placed in a bath containing ND96 solution. Voltage and current electrodes were filled with 3M KCl, and the resistances of both electrodes were kept between 0.7 and 1.5 MO). The elicited currents were sampled at 20 kHz and filtered at 2 kHz using a four-pole, low pass Bessel filter. […] All data was analyzed using pClamp Clampfit 10.0 (Molecular Devices®, Downingtown, Pa.) and Origin 7.5 software (Originlab®, Northampton, Mass.) and is presented as mean±standard error (S.E.M) of at least 3 independent experiments (n≥3).

Nav1.5 = Nav1.5 (Homo sapiens, UniProt Q14524); test: Two-electrode voltage clamp, Nav1.5 expressed in Xenopus oocytes; assay type: cell-based; settings: 6 μM
Nav1.1 = Nav1.1 (Rattus norvegicus, UniProt P04774); test: Two-electrode voltage clamp, Nav1.1 expressed in Xenopus oocytes; assay type: cell-based; settings: 6 μM
Artemia salina = assay type: in vivo
Method: Alpha-Nemertides were prepared as described in Example 2, above, or by manual synthesis […] on 2-chlorotrityl resin as described in the Material and methods section below. […]. The brine shrimp assay is commonly used as toxicity assay, but is particularly suitable in the current work as a model system for crustaceans. In the first round of experiments Nemertides α-1, α-2, α-5, and α-6 were evaluated. […]. Artemia salina Assay of Alpha-Nemertides. 100 μl of sea water containing about 20-30 brine shrimps were added to each experimental well of a 96-well microplate. 100 μl of peptide solutions were then added to each well. As a control, some wells were filled with 100 μl of seawater containing shrimps and 100 μl milliQwater. The plates were covered and incubated in the dark at room temperature for 24 hours. After 24 hours, 10 second video clips of each well were filmed through a microscope. The shrimps were subsequently counted and categorized as either dead (not moving), affected (moving slowly, mostly at the bottom of the well) or normal (moving normally compared to the control at all levels of the well). The shrimps were then immobilized by addition of 100 μl of methanol. After 1 hour the total number of shrimps in each well was counted and the ratio (dead+affected)/total was calculated.

BgNav1 = test: Two-electrode voltage clamp, BgNav1 expressed in Xenopus oocytes; assay type: cell-based, Blattella germanica
Carcinus maenas = assay type: in vivo
Method: The effect of nemertean mucus on crustaceans is well documented, and the shore crab has been used as a model system to assess biological activity in vivo. When injected with active concentrations of nemertide α-1, tremor of the limbs was seen within 1-2 minutes. This was followed by hypertonus, and claws and legs were pulled inwards the body and the crab tilted forward. From this point the crabs remained in a paralytic state. After 20-30 minutes hypertonus was released while paralysis remained. […].
Carcinus maenas Assay. Shore crabs (20-50 g) were injected with control (500 μl sterile filtered sea water) or nemertide α-1 dissolved in sterile filtered sea water, into the cephalothorax between the first and second walking leg on the right side of the crab. Doses ranged from 0.1-50 μg/kg, in a maximal volume of 500 μl. The crabs were placed into a container filled with seawater and observed. All injections were made in duplicate.

DmNav1 = DmNav1 (Drosophila melanogaster, UniProt P35500); test: Two-electrode voltage clamp, DmNav1 expressed in Xenopus oocytes; assay type: cell-based; settings: 0.8 μM to 8 nM

Structure (SMILES): CC[C@H](C)[C@@H]1NC(=O)[C@@H](NC(=O)CN)CSSC[C@@H]2NC(=O)[C@@H]3CSSC[C@@H](C(=O)N[C@@H](CC(N)=O)C(=O)N4C[C@H](O)C[C@H]4C(=O)N4C[C@H](O)C[C@H]4C(=O)N[C@@H](CC(N)=O)C(=O)N[C@@H](CCC(N)=O)C(=O)O)NC(=O)[C@H](CCCCN)NC(=O)[C@H](Cc4ccccc4)NC(=O)[C@H](CC(N)=O)NC(=O)[C@H](Cc4c[nH]c5ccccc45)NC(=O)CNC(=O)[C@H](CSSC[C@H](NC(=O)[C@H](Cc4ccccc4)NC(=O)[C@H](CO)NC(=O)CNC(=O)[C@H]([C@@H](C)O)NC(=O)[C@H](C)NC1=O)C(=O)N[C@@H]([C@@H](C)O)C(=O)N[C@@H](CC(C)C)C(=O)N[C@@H](CO)C(=O)N[C@@H](CCCCN)C(=O)NCC(=O)N3)NC(=O)[C@H](CC(N)=O)NC(=O)[C@H](CCCCN)NC(=O)[C@H]([C@@H](C)O)NC2=O [Nemertide α-1]
- effect on inactivation of Nav1.6 (Nav1.6): significantly delayed the inactivation
- effect on Nav1.8 (Nav1.8): No effect
- effect on inactivation of Nav1.5 (Nav1.5): significantly delayed the inactivation
- effect on inactivation of Nav1.1 (Nav1.1): significantly delayed the inactivation
- relative potency in brine shrimp assay (Artemia salina; 24 hours, compared among native nemertides): most active
- IC50 (Artemia salina; in vivo, 24 h): < 1 µM
- alteration of activation of BgNav1 (BgNav1; 10 nM): No significant alteration of activation
- sodium influx through BgNav1 (BgNav1; 10 nM, 50 ms depolarization from −90 mV to −30 mV): massive increase in sodium influx
- V1/2 of inactivation of BgNav1 (BgNav1; 10 nM, control −60.4±0.6 mV): −54.5±1.6 mV
- effect on inactivation of BgNav1 (BgNav1; 1 μM): complete inhibition of the inactivation; also recorded: completely inhibited their inactivation
- onset of tremor of the limbs after injection (Carcinus maenas; active concentrations): 1 to 2 min
- time after which hypertonus was released while paralysis remained (Carcinus maenas; active concentrations): 20 to 30 min
- dose giving death within minutes (Carcinus maenas; crabs, injection): 10 µg/kg
- dose revealing immediate neurotoxic activity (Carcinus maenas; crabs, injection): 1 µg/kg
- effective dose expressed as molar amount (Carcinus maenas; equals 1 μg/kg): ~300 femtomol/g
- outcome at the higher doses (Carcinus maenas; higher doses): proved lethal
- recovery (Carcinus maenas; in vivo): No recovery could be observed
- lowest dose to provoke an effect (Carcinus maenas; later onset partial paralysis): 1 µg/kg
- high-dose injections giving a rapid response (Carcinus maenas; tremor, hypertonus, paralysis): 5 to 50 µg/kg
- difference in EC50 between mammalian (Nav1.6) and insect (DmNav1) channels (DmNav1): 100 fold

Entries after “also recorded” stand apart in the source; their conditions may differ.
